Literature values as cited in patent publication US6953810B2, “Nicotinamide biaryl derivatives useful as inhibitors of PDE4 isozymes” (Pfizer Inc, priority 2001, dated 2005).

System: lung, BAL, airway and pleural eosinophilia
Settings: guinea pig, in vivo; cited from earlier work

SMILES: COc1ccc(C(=O)Nc2c(Cl)cncc2Cl)c2cccnc12 [Example D4418]
- inhibition of antigen-induced lung, BAL or airway eosinophilia: active
